This is an account of results in article PMC8513079 (Molecules, 2021).

Sequences of proteins named here, by UniProt entry; tags and fusion partners are left off. A change or cut given only in a name is not applied to a line headed by its entry.
UniProt P41145: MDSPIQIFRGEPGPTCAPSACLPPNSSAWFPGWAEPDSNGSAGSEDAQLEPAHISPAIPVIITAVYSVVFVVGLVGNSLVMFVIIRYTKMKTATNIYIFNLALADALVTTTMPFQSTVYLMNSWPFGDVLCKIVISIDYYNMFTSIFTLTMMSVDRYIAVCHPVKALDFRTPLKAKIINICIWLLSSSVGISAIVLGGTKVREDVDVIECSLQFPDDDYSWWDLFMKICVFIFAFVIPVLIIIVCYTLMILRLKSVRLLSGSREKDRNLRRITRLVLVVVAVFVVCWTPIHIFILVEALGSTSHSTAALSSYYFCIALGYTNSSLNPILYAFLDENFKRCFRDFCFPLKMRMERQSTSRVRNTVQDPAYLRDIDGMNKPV

SMILES strings stand for the structures.

The experiment deals with KOR (Halotag-KOR) in HEK293 cells (Homo sapiens, UniProt P41145). Kind of experiment: cADDis cAMP assay, KOR. The class given is cell-based. The settings on record: relative to 10^−5 M U-50488H, cADDis sensor, 50 μM forskolin, 28 °C, 40 min reading, 10^−11–10^−5 M, means ± S.E.M., three independent experiments (n = 3–5), Figure 4, + p < 0.05 vs U-50488H. In general terms: Changes in cAMP serve as a functional read-out for many G protein-coupled receptors.

On to `CN(C(=O)Cc1ccc(Cl)c(Cl)c1)[C@@H]1CCCC[C@H]1N1CCCC1`, for which the “Emax, cAMP assay, KOR (Table 1)” value was 100.0 ± 3.0%.
